## Ab-14 light chain CDR variants: yeast mating affinities

Values reported by Li et al. 2023, doi:10.1038/s41467-023-39022-2 (FLAb copy).

The target is the same throughout: PDVDLGDISGINAS, from the HR2 region of SARS-CoV-2 spike.

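The parent was found by panning a naive human phage display library on the peptide. These sequences belong to a second round, designed from the earlier measurements on random variants of the parent. Several design methods are mixed in this list. AlphaSeq pools MATa yeast showing the antibodies with MATalpha yeast showing the peptide. Binding brings cells together so that they mate, and sequencing counts the barcode pairs among the diploids. The ratio of observed to expected reads was calibrated, replicate by replicate, on BCL2-family standards whose Kd was known from biolayer interferometry. The assay was run in six technical replicates.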

Each scFv is VH, a (GGGGS)3 linker, VL, as in the parent Ab-14, and differs from it in the CDRs of the light chain only.
VH: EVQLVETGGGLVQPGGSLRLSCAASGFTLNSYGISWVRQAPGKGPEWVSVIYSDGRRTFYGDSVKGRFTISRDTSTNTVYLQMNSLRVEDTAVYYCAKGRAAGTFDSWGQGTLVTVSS
VL: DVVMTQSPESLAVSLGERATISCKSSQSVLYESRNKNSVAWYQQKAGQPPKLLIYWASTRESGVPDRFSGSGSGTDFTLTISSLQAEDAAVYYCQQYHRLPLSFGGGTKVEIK

Variants are written as CDR1, CDR2 and CDR3 of the light chain (limits as in the source). Parent: KSSQSVLYESRNKNSVA, WASTRES, QQYHRLPLS. This list holds designs with at most six substitutions. Scale: log10 of Kd in nM, estimated from mating counts; low values are strong binders. Averages over replicates are reported, and they cover detected replicates only. Where no diploid with the target was found in that replicate, the entry reads "nd": below detection, most likely a poor binder, though not proof of it. The authors' rule: three or more of the six replicates give a measured affinity, fewer mean a poor binder. Empty control strains, which show no peptide, gave a signal in 4% of pairings with all light chain designs; the median was 2.64 and 95% of these signals were weaker than 1.59. No background was subtracted. Where one sequence has several entries in the source, the replicates are listed entry by entry, parted by semicolons. The range of this assay differs from that of the first round, and the authors advise against merging the two.

With HSSPSVLYESRNKNSVA, AGSTRES, QQYHRLPLS the result was 0.01, -0.24, 0.07, -0.36, -0.68, 0.06 (mean -0.19).
With KSSQSVEMESRNSNNVA, DASQRES, QQYHRLPLS the result was -0.21, -0.41, -0.49, -0.47, -0.48, -0.31 (mean -0.39).
With SLDQSVLYESRNKNSVA, HASLRED, QQYHRLPLS the result was 0.08, 0.16, -0.04, 0.08, 0.28, 0.28 (mean 0.14).
With FLSQSVLYESRNKNSVA, NASTRCS, QQYHRLPLS the result was -0.06, 0.01, -0.23, -0.30, -0.10, -0.09 (mean -0.13).
With KISISVLYEDDNKNSVA, WASTRES, QQYHRLPLS the result was 1.70, 0.59, nd, -0.49, nd, 0.82 (mean 0.66).
With KSSQSWLYESRNKNSVA, EASQRES, QQYHRLPLS the result was -0.26, -0.40, -0.28, -0.48, -0.57, -0.27 (mean -0.38).
With KYSQDKLYESRNKHSVA, WASTRES, QQYHRLPLS the result was 0.79, 0.70, 0.47, 1.10, 0.87, 1.44 (mean 0.89).
With MSSQSVLYESRNKNSTA, WANKRES, QQYHDLPLS the result was nd, nd, nd, nd, nd, nd.
With KSSQSGLNESRNKNSVA, SASTRES, QQYHRLPLS the result was 1.27, 1.26, 1.38, 1.48, 0.91, 0.83 (mean 1.19).
With KSSQSVLYESRNLNSVA, EASTRES, QQYHRLPLS the result was 1.22, 0.83, 1.02, 1.16, 0.78, 1.16 (mean 1.03).
With KLSQSVLYMSENKNSVA, WASTRES, QQYHHLPLS the result was 0.77, 1.18, 0.61, 0.87, 0.51, 1.28 (mean 0.87).
With KVSQSVLYESRTKNSVA, NASTRES, QQGHRLPLS the result was nd, nd, nd, nd, 1.83, nd.
With KLSQSHLYESRNKNSVA, NASTREM, QQYHRLPLS the result was 0.09, 0.07, -0.16, -0.44, -0.05, 0.23 (mean -0.04).
With KLSQSQLYESRNKNSVA, DASQRES, QQYHRLPLS the result was -0.32, -0.50, -0.70, -0.86, -0.42, -0.51 (mean -0.55).
With KSSQSGLYEDRVKNSVA, GASTRES, QQYHRLPLS the result was -0.03, -0.02, -0.08, -0.10, -0.18, 0.04 (mean -0.06).
With KSSQSVLYESTNKNSMA, WASMRES, QQYHRLPLS the result was nd, nd, nd, nd, nd, nd.
With KLQQSVEYESRNKNSVA, DASTRES, QQYHRLPLS the result was -0.08, -0.18, -1.15, -0.71, -0.06, -1.04 (mean -0.54).
With MSSQSVTNESRNKNSVA, WASTRET, QQYHRLPLN the result was nd, nd, nd, nd, 1.99, nd.
With KSSQSVLYESRNANSVA, EASTRES, QQYHRLPLS the result was 0.53, 0.60, 0.38, 0.39, 0.43, 0.88 (mean 0.53).
With KSSQSVMYESRLTNSVA, HASTRET, QQYIRLPLS the result was 1.66, 0.79, 0.77, 0.05, 0.46, 1.00 (mean 0.79).
With KSSQEVLGESRNKNSVA, WATERES, QQYHRLPLS the result was 2.26, 2.68, 3.55, 3.07, 2.00, 3.39 (mean 2.83).
With KSSQSDLYESRNKNSIA, AASKRES, QQYHRLPLS the result was 0.45, 0.27, 0.47, 0.38, 0.27, 0.13 (mean 0.33).
With KSSQSVLYESRNKNSVA, WASTRES, QHYHRLPLS the result was nd, nd, nd, nd, nd, nd.
With KSSQSVLYESTNKNSVA, WASTREP, QTYHRLPLS the result was 1.98, 1.96, nd, 2.12, 2.61, nd (mean 2.17).
With KFSQSVLYEMRTKNAVA, NASTRES, QQYHRLPLS the result was 0.33, 0.26, 0.23, 0.06, 0.35, 0.18 (mean 0.23).
With KSRQSVLYESCNKNSVA, WASTRES, QQYHRLPLS the result was nd, nd, nd, nd, nd, nd.
With KSSISVLYESRNKNSVA, GASTREH, QQYHRLPLS the result was 0.79, 0.86, 0.50, 0.65, 0.57, 0.99 (mean 0.73).
With KLSQSVLYESRMKNSVA, EASTRMS, QQYHRLPLS the result was 0.71, 0.65, 0.39, 0.24, 0.88, 0.61 (mean 0.58).
With KSSQSVLMESRNKNSVA, WASRRES, QQYHRLPLS the result was nd, nd, nd, nd, nd, nd.
With KLSQSVEYESRNKNSVA, NASTREY, QAYHRLPLA the result was 0.13, 0.28, 0.09, 0.84, 0.65, 0.47 (mean 0.41).
With KVSQYVLYESRNKNSVA, WASTRES, QQYHRLPLS the result was 1.72, 0.97, 0.20, 0.47, 0.81, 1.16 (mean 0.89).
With KSSQSDLYESRNKNSVA, EASTRES, QQYHRLPLS the result was 0.11, -0.16, -0.20, -0.36, -0.12, -0.04; 0.05, 0.01, -0.18, -0.03, -0.25, 0.04 (mean -0.09).
With KSSQSVLYESRNHNSVA, DASTRES, QQYHRLPLS the result was 0.05, -0.03, -0.20, 0.04, -0.28, 0.27 (mean -0.03).
With KSSQSVPYESRNKNSVA, GASTRES, QQYHRLPLS the result was 0.66, 0.80, 0.75, 0.69, 1.16, 0.71; 0.65, 0.27, 0.20, 0.11, 0.25, 0.78 (mean 0.59).
With KSSISYLTEKRNKNSVA, EASTRES, QQYHRLPLS the result was 0.32, 0.44, 0.39, 0.22, 0.19, 0.47 (mean 0.34).
With KSLQSVLYESRNKNSVA, HASTRED, QQYHRLPFS the result was 0.40, 0.38, 0.46, 0.34, 0.54, 0.53 (mean 0.44).
With KSSQSVLYESRKKNSVA, EASTRES, QQYHALPLS the result was 1.32, 1.27, 1.04, 1.51, 1.01, 1.69 (mean 1.31).
With KSSQSVLLESRNKNSVA, WASTRNS, QQVHRLPLS the result was nd, nd, nd, nd, 3.57, nd.
With KLEQSQLYESRNKNSVA, NASTRYS, QQYHRLPLS the result was 0.39, -0.03, -0.02, -0.04, 0.01, 0.17 (mean 0.08).
With GSGQSVLMESRNHNSVA, KASTRES, QQYLRLPLS the result was 1.61, 1.68, nd, nd, nd, nd (mean 1.65).
With KISPSVLGESWNKNSVA, SASTRES, QDYHRLPLS the result was nd, 2.47, nd, nd, nd, nd.

Excerpt, the first 7 entries:

Variant HSSPSVLYESRNKNSVA, AGSTRES, QQYHRLPLS gave 0.01, -0.24, 0.07, -0.36, -0.68, 0.06 (mean -0.19).
Variant KSSQSVEMESRNSNNVA, DASQRES, QQYHRLPLS gave -0.21, -0.41, -0.49, -0.47, -0.48, -0.31 (mean -0.39).
Variant SLDQSVLYESRNKNSVA, HASLRED, QQYHRLPLS gave 0.08, 0.16, -0.04, 0.08, 0.28, 0.28 (mean 0.14).
Variant FLSQSVLYESRNKNSVA, NASTRCS, QQYHRLPLS gave -0.06, 0.01, -0.23, -0.30, -0.10, -0.09 (mean -0.13).
Variant KISISVLYEDDNKNSVA, WASTRES, QQYHRLPLS gave 1.70, 0.59, nd, -0.49, nd, 0.82 (mean 0.66).
Variant KSSQSWLYESRNKNSVA, EASQRES, QQYHRLPLS gave -0.26, -0.40, -0.28, -0.48, -0.57, -0.27 (mean -0.38).
Variant KYSQDKLYESRNKHSVA, WASTRES, QQYHRLPLS gave 0.79, 0.70, 0.47, 1.10, 0.87, 1.44 (mean 0.89).